From paper PMC10051560, “Identification and Functional Characterization of General Odorant Binding Proteins in Orthaga achatina” (Insects, 2023) come the findings set out here.

By UniProt entry, the sequences of proteins in these tests, tags left out. Residues count along the entry.
UniProt H6UEU3, 23-163 limits assumed: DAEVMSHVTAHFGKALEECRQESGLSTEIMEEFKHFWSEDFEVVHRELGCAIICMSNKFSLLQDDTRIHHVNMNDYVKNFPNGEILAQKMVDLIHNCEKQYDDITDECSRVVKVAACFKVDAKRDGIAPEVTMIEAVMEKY

In general, Ki refers to the dissociation constant of the complex between target and ligand, obtained from inhibition or displacement.

In this experiment the target is OachGOBP2 (Orthaga achatina, UniProt H6UEU3). Kind of experiment: Fluorescence competitive binding assay (1-NPN displacement), OachGOBP2. Conditions: read-out: GOBP2 Ki; Ki = [IC50]/(1 + [1-NPN]/K1-NPN); 2 µM protein and 2 µM 1-NPN in 50 mM Tris HCl.

Some results are limits rather than exact numbers.

Turning to `CCCC/C=C\CCCCCCCCCC=O` [Z11-16: Ald], the Ki was above 30 µM.
